Data from publication PMC6544337, “Development of chimeric and bifunctional antagonists for CLR/RAMP receptors” (PLoS ONE, 2019).

Protein sequences, listed by entry. Tags and fused reporters are not part of them. Residues count along the entry.
UniProt Q16602, 23-461, chain 1 of 2: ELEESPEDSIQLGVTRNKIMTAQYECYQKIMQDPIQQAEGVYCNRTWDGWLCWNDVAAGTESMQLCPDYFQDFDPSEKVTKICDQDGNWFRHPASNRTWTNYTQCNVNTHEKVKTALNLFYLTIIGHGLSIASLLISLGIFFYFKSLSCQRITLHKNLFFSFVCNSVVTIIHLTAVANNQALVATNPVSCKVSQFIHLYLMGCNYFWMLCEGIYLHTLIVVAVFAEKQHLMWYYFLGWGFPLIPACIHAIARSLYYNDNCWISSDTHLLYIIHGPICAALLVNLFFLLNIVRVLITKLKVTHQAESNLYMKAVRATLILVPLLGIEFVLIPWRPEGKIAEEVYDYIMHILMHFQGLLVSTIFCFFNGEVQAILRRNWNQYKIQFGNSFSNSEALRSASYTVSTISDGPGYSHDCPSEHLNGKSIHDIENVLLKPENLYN

Tests used:
[1] = target: CLR/RAMP1 receptor complex (UniProt Q16602)
[2] = target: CLR/RAMP2 receptor complex (UniProt Q16602)

- EC50 of CLR/RAMP1 cAMP signalling (1321N1 cells, HitHunter cAMP XS+ assay) [1]: 564 nM
- EC50 of CLR/RAMP2 signalling (CHO-K1 cells, PathHunter β-Arrestin assay) [2]: 12 nM
Substance: ADM1-52 (peptide)
